Here are results for one compound from patent US20210300873A1 (Clear Creek Bio, Inc., priority 2020, published 2021).

This data set is described as follows: Stability of the polymorphic form under vacuum drying. In kind it is physicochemical. Conditions: vacuum drying condition of 50° C. for 18 h.

Structures are written as SMILES. Structures can show the parent of a compound that is named as a salt.

As to `Cc1c(-c2ccc(-c3ccccc3F)cc2)nc2ccc(F)cc2c1C(=O)O` [Pattern C, 6-Flouro-2-(2′-fluoro-1,1′-biphenyl-4-yl)-3-methyl-4-quinolinecarboxylic acid sodium salt], the “Change of polymorphic form on drying (in words)” value is on record as “remains the same”.
